Values of other authors in patent publication US7741370B2, “Double salts of (−)-hydroxycitric acid and a process for preparing the same” (Laila Impex, priority 2004, dated 2010).

Conditions: prior-art salt (Singh et al.), statement in words

calcium salt of HCA
solubility in water: not very soluble in water
